The values below come from USRE34712E, “Pharmaceutically useful (+)-1-(3-dimethylaminopropyl)-1-(4'-fluorophenyl)-1,3-dihydroiso benzofuran-5-carbonitrile and non-toxic acid addition salts thereof” (priority 1988, dated 1994).

The structures appear in SMILES notation.

In assay [1] the test system is ^3 H-serotonin (5-HT) uptake in rat brain synaptosomes. Briefly: Inhibition of ^3 H-serotonin uptake in rat brain synaptosomes. As to conditions: for IC50: rat brain synaptosomes, ^3 H-5-HT 10 nM, 10 min at 37° C., in vitro. In kind it is biochemical. The method, then:
By this method the inhibition by drugs of the uptake of .[.3 H-serotonin.]. .Iadd.^3 H-serotonin .Iaddend.(^3 H-5-HT)(10 nm) in rat brain synaptosomes is determined in vitro. Method and results in Hyttel, Psychopharmacology 1978, 60, 13-18; Hyttel, Prog. Neuro-Psychopharmacol. & Biol. .[.Psychait..]. .Iadd.Psychiat. .Iaddend.1982, 6,277-295; Hyttel & Larsen, Acta pharmacol. tox. 1985, 56, suppl. 1, 146-153. .[.Procedure p.].
Male Wistar (Mol: Wist) rats (125-250 g) are sacrified by decapitation and .[.exanguinated.]. .Iadd.exsanguinated .Iaddend.Brain tissue (minus cerebellum) is gently homogenized (glass teflon homogenizer) in 40 vol (w/v) of ice cold 0.32M of sucrose containing 1 mM of nialamide. The P2 fraction (synaptosomal fraction) is obtained by centrifugation (600 g. 10 min and 25000 g. 55 min, 4° C.) and suspended in 800 volumes of a modified Krebs-Ringer-phosphate buffer, pH 7.4.
To 4000 μl of the synaptosomal suspension (5 mg original tissue) on ice are added 100 μl test substance in water. After preincubation at 37° C. for 5 min, 100 μl of ^3 H-1-NA (final .[.concnetration.]. .Iadd.concentration .Iaddend.10 nM) are added and the samples are incubated for 10 min at 37° C. The incubation is terminated by filtering the samples under vacuum through .[.Whatmam.]. .Iadd.Whatman .Iaddend.GF/F filters with a wash of 5 ml buffer containing 10 μM of unlabeled 5-HT. The filters are placed in counting vitals and 4 ml of appropriate scintillation fluid (e.g. Picofluor ®15) are added. After shaking for 1 h and storage 2 h in the dark the content of radioactivity is determined by liquid scintillation counting. Uptake is obtained by subtracting the nonspecific binding and passive transport measured in the presence of 10 μM citalopram (Lu 10-171-B).
For determination of the inhibition of uptake five concentrations of drugs covering 3 decades are used.
The measured cpm are plotted against drug concentration on semilogarithmic paper, and the best fitting s-shaped curve is drawn. The IC50 -value is determined as the concentration, at which the uptake is 50% of the total uptake in control samples minus the nonspecific binding and uptake in the presence of 10 μM of citalopram.

The test system of the next assay is 5-HT reuptake. To be noted: racemate; background statement; cited from earlier work.

Broadly, the IC50 is the concentration that inhibits the measured activity by half. A lower IC50 goes with greater potency in that assay. Turning to `CN(C)CCCC1(c2ccc(F)cc2)OCc2cc(C#N)ccc21` (single isomer, unassigned; (+)) [(+)-citalopram, (+)-1-(3-Dimethylaminopropyl)-1-(4'-fluorophenyl)-1,3-dihydroisobenzofuran-5-carbonitrile], the “5-HT uptake inhibition, share residing in the enantiomer” value in assay [1] ((+)-enantiomer compared with (-)-enantiomer) is recorded as “almost the entire 5-HT uptake inhibition resided”. For the same molecule, the IC50 in assay [1] was determined as 1.1 nM.

As for `CN(C)CCCC1(c2ccc(F)cc2)OCc2cc(C#N)ccc21` (racemic) [(±)-citalopram, 1-(3-dimethylaminopropyl)-1-(4'-fluorophenyl)-1,3-dihydroisobenzofuran-5-carbonitrile, reference compound], the “selectivity as inhibitor of 5-HT reuptake” value with 5-HT reuptake is “very selective inhibitor of 5-HT reuptake”. This molecule also had an IC50 in assay [1] of 1.8 nM.

Regarding `CN(C)CCCC1(c2ccc(F)cc2)OCc2cc(C#N)ccc21` (single isomer, unassigned; (-)) [(-)-citalopram, (-)-1-(3-dimethylaminopropyl)-1-(4'-fluorophenyl)-1,3-dihydroisobenzofuran-5-carbonitrile], the 50% inhibitory concentration (IC50) in assay [1] turned out to be 150 nM.
